Among the data in ChEMBL document CHEMBL4184319, “Fluorescent-Labeled Selective Adenosine A2B Receptor Antagonist Enables Competition Binding Assay by Flow Cytometry” (J Med Chem, 2018) are IC50 values, retold here.

For this experiment, the target named is T1, Adenosine receptor A2b (Homo sapiens, UniProt P29275).
T1 sequence (P29275 whole entry): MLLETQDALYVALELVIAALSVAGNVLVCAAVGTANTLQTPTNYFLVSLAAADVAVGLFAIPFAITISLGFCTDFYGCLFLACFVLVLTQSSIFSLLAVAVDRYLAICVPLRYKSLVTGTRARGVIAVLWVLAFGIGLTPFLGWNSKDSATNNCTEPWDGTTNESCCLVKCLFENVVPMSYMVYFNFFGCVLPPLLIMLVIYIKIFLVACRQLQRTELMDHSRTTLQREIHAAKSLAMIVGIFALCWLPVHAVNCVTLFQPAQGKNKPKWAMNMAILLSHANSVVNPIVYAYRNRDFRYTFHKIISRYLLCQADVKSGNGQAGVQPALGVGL
The experiment in a line: Displacement of PSB-12105 from recombinant human adenosine A2B receptor expressed in CHO cell membranes preincubated for 30 mins followed by PSB-12105 addition measured after 20 mins by flow cytometric method. Type of experiment: cell-based. The method in brief: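 Live CHO-hA2B cells were pre-treated with ADA (2 U/mL, 2 h, 37°C), detached with 5 mM EDTA, and resuspended in HBSS with 2 U/mL ADA at 2.5×10^5 cells/well in 96-well format. Antagonists pre-incubated 30 min at 37°C, then fluorescent ligand (100 nM) added for 20 min at 37°C. 3-5 independent experiments in duplicate.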
On the technique in general: In flow cytometry, cells or beads pass a laser one at a time.

pIC50: −log10 of the molar value.

As a reminder, the pIC50 is the negative decadic logarithm of the IC50, by convention in mol/L. Consider `Nc1nc2ccc(Cl)cc2c2nc(-c3ccco3)nn12` [CGS-15943], for which the pIC50 is 7.22.
